We go through one molecule from patent publication US9453030B2, “Oxidative degradation products of atrovastatin calcium” (LEK Pharmaceuticals d.d., priority 2004, dated 2016).

The nature of the data set: Content of oxidative degradation products in atorvastatin calcium stored in air or nitrogen for 24 months at room temperature (HPLC, 250 nm). The conditions noted are these: stored in air, room temperature (25° C.).

SMILES strings stand for the structures.

With `CC(C)c1c(C(=O)Nc2ccccc2)c(-c2ccccc2)c(-c2ccc(F)cc2)n1CC[C@@H](O)C[C@@H](O)CC(=O)[O-].CC(C)c1c(C(=O)Nc2ccccc2)c(-c2ccccc2)c(-c2ccc(F)cc2)n1CC[C@@H](O)C[C@@H](O)CC(=O)[O-].[Ca+2]` (relative stereo) [atorvastatin calcium, hemicalcium salt of (R—(R*,R*))-2-(4-fluorophenyl)-β,δ-dihydroxy-5-(1-methylethyl)-3-phenyl-4((phenylamino)carbonyl)-1H-pyrol-1-heptanoic acid], the “Content of ATV-cycloFP in %” value came out at 0.905% and the “Content of ATV-epoxy furan in %” value was determined as 0.636%.
